According to patent US20050069513A1, “Amphiphilic compounds for pharmaceutical or cosmetic use” (Physica S.A.R.L., priority 2001, published 2005):

Legend:
[1] = Formation of ion pair in aqueous phase: solubility / appearance of solutions; type: physicochemical; settings: after mixing active principle and acylamino acid solutions
From the text: Two aqueous solutions are used. The first contains calcitonin. Due to the fact that the calcitonin is hydrophilic, the solution is clear. […] This second solution has a milky white appearance.
The obtained complex, calcitonin oleyl methyl glycine, is therefore amphiphilic.
Two aqueous solutions are used. The first contains lidocaine dispersed in the aqueous solution. […] This second solution has a milky white appearance.
The obtained complex, lidocaine oleyl glycine, is therefore amphiphilic.
A solution of NaOH in the quantity required for causing precipitation of all of the polymyxin E by deplacement of the sulphate salt is added to a solution of polymyxin E sulphate. Polymyxin E, also known as colistin, thereby goes back to its non-salified, basic structure. The resulting solution, solution B, is thus an aqueous phase with a precipitate of polymyxin E.
The polymyxin is thus resolubilized in the form of an amphiphilic complex, polymyxin E linoleyl glycine.

[2] = Method: An in vitro diffusion study is carried out with the aim of testing how well polymyxin E passes through a synthetic membrane. This membrane, of nylon type, is impregnated with lipid substances, in order to simulate diffusion through the intestinal lipid membrane. This study compares the performances of polymyxin E in the form of an ion pairing with an acylamino acid (oleyl methyl glycine) and in sulphate salified form.
The in vitro permeation study is carried out using Frantz cells. These cells have a donor compartment, in which a formulation containing polymyxin E in ion pair form or a polymyxin E sulphate solution is deposited, and a receptor compartment containing demineralised water. […] The two compartments are separated by the synthetic membrane.
The measurement of the quantity of polymyxin E which diffuses through the membrane is carried out by UV after: 1 hour, 2.5 hours, 4 hours, 6 hours and finally 7 hours.
The table below relates to a quantity of polymyxin E which diffused over the period of time; the values shown are cumulative values.

Substance | appearance of aqueous solution of the complex after mixing the two solutions [1] | diffusion rate through lipid synthetic membrane relative to sulphate-salified form [2]
polymyxin E linoleyl glycine | single clear phase | 
calcitonin oleyl methyl glycine | clear solution having a single phase | 
polymyxin E oleyl methyl glycine [AIP of polymyxin E-oleyl methyl glycine] |  | 2 times
lidocaine oleyl glycine | clear solution having a single phase | 
